{
  "source": "patent US9616056B2",
  "about": "“Inhibition of leukotriene synthesis and activity in the treatment of sonic hedgehog-associated medulloblastoma” (Institute for Cancer Research, priority 2013, dated 2017)",
  "key": {"[1]": {"test_system": "tumor cells isolated from Math1-Cre/Ptch1^C/C animals (MB cells)", "test": "Tumor cell proliferation in vitro by Ki67 immunostaining", "type": "cell-based, mouse", "conditions": "48 hrs; 5 μM MK886, 3 μg/ml cyclopamine, 10 μM NDGA, 20 μM Zileuton, 50 μM Montelukast, 50 μM Zafirlukast (FIG. 6)"}, "[2]": {"test_system": "wildtype GNPs (normal granule neuron precursors)", "conditions": "48 hrs; 20 ng/ml recombinant Shh added; 5 μM MK886, 3 μg/ml cyclopamine, 10 μM NDGA, 20 μM Zileuton, 50 μM Montelukast, 50 μM Zafirlukast (FIG. 6)"}},
  "data": [
    {"compound": "CC1=C2C[C@H]3[C@@H](CC=C4C[C@@H](O)CC[C@@]43C)[C@@H]2CC[C@]12O[C@@H]1C[C@H](C)CN[C@H]1[C@H]2C", "note": "[cyclopamine]", "values": [
      {"measurement": "tumor cell proliferation (Ki67)", "setting": "[1]", "result": "dramatically prevented the proliferation"},
      {"measurement": "GNP proliferation (Ki67)", "setting": "[2]", "result": "dramatically prevented the proliferation"}
    ]}
  ]
}
